Source: ChEMBL document CHEMBL4138130, “Effect of mofezolac-galactose distance in conjugates targeting cyclooxygenase (COX)-1 and CNS GLUT-1 carrier” (Eur J Med Chem, 2017)

Protein sequences, listed by entry. Tags and fused reporters are not part of them.
UniProt P23219, whole entry: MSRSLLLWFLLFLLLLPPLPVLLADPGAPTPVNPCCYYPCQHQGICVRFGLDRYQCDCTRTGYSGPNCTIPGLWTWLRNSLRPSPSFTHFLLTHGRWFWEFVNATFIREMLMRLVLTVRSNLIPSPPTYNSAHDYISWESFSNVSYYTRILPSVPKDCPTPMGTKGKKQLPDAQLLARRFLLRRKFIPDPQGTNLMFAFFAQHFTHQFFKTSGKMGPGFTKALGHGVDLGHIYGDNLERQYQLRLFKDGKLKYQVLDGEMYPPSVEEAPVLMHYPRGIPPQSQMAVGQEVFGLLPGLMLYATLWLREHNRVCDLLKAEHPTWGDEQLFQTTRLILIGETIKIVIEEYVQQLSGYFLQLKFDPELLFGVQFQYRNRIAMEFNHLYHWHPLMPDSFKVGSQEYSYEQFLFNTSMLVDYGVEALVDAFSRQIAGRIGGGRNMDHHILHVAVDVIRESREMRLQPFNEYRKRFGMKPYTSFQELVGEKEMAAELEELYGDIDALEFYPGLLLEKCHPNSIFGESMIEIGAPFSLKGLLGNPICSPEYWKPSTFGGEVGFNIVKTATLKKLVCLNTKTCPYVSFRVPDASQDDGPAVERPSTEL

Target: Prostaglandin G/H synthase 1 (Homo sapiens, UniProt P23219)
Test: Inhibition of human COX1 assessed as reduction in appearance of oxidized TMPD using arachidonic acid as substrate by colorimetric assay

COc1ccc(-c2noc(CC(=O)O)c2-c2ccc(OC)cc2)cc1 [MOFEZOLAC]
IC50: 7.9 nM
